## AlphaSeq binding of Ab-14 heavy chain variants to a spike HR2 peptide

Binding partner: SARS-CoV-2 spike HR2 peptide, sequence PDVDLGDISGINAS.

Each scFv is VH, a 15-residue (Gly4Ser)3 linker, VL, as in the parent Ab-14, and differs from it in the CDRs of the heavy chain only.
VH: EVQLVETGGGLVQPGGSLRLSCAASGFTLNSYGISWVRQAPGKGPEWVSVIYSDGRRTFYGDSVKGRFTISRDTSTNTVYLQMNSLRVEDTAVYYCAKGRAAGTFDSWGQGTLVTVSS
VL: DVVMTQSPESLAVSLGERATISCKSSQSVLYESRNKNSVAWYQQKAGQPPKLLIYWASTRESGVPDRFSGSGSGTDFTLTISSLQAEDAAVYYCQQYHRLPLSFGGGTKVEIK

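The parent was found by panning a naive human phage display library on the peptide. Variants in AAYL49 differ from the parent at up to three CDR positions; double and triple changes were sampled at random. The assay is AlphaSeq: two haploid yeast populations carry antibody and antigen on their surface. The frequency of each diploid, read from paired DNA barcodes, reflects how well the two displayed proteins bind. Scores were corrected for input abundance and mapped to Kd with protein pairs of known affinity run in the same pool. There are three technical replicates.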

The parent's heavy chain CDRs are GFTLNSYGIS, VIYSDGRRTFYGDSVK, GRAAGTFDS; each variant's own CDRs replace them letter for letter. The read-out is the apparent dissociation constant on a log10 scale (nM): the lower, the stronger. Replicates are averaged; those with no signal do not enter the mean. "ND" marks a missing value. The strain was present, yet no cells mated with the target were sequenced in that replicate, which points to weak or no binding. In this assay the parent's reference entry averaged 0.65; its copy inside this library read 4.11 (one replicate of three). Nonspecific signal, from three strains lacking the peptide, appeared in 15% of pairings of library AAYL49, centred on 4.06 (5% of these signals below 2.83); values are not corrected for it. For each scFv, signals with the empty controls are counted beside the result, with their mean in brackets.

CDR-H1	CDR-H2	CDR-H3	log10 Kd, replicates	mean, log10 nM	empty controls
GFTLNSYGIS	VIYSDGRRTFYGDDVK	RRAAGTSDS	1.25 / 1.53 / 1.04	1.28	4 of 9 (4.44)
HFTWNSYGIR	VIYSDGRRTFYGDSVK	GRAAGTFDS	ND / ND / ND	ND	2 of 9 (4.72)
GFTLNSYGIS	VPYSDGRRTWYGDSSK	GRAAGTFDS	ND / ND / ND	ND	1 of 9 (4.16)
GFTLNSYGIS	VIYSDVRRTFYGDSVK	ERAAGTFDS	ND / ND / ND	ND	0 of 9
GLYLNSYGIS	VIYSSGRRTFYGDSVK	GRAAGTFDS	ND / ND / ND	ND	0 of 9
GYTLNSYGIE	VAYSDGRRTFYGDSVK	GRAAGTFDS	ND / 4.35 / ND	4.35	3 of 9 (4.92)
GFTLNSYDIS	VIYSDGRRTFYFDSVK	GRAAGTFDT	ND / ND / ND	ND	0 of 9
GFTLNSYGCS	VIYSDGRRHFYGDSVK	GRAAGTFDS	ND / ND / ND	ND	0 of 9
GFTLNSYGAS	VIYSDGRRTFYGDSVD	GRAAGTFDS	ND / ND / ND	ND	2 of 9 (4.11)
GFTLNSYGIS	VMYSDGRRTFMGDSVK	GRAHGTFDS	ND / ND / ND	ND	5 of 9 (4.39)
GFALNSYKIS	VIYSDGRGTFYGDSVK	GRAAGTFDS	ND / ND / ND	ND	1 of 9 (3.18)
GFTLNSYGIS	VFYSDGRRTFYGDKVK	GRACGTFDS	ND / 4.12 / ND	4.12	1 of 9 (4.12)
GFTLNSYGIS	VIISDGRRCFYGDSVK	GRAAGTFDK	ND / 3.04 / ND	3.04	2 of 9 (4.18)
GFTDNSYGIS	VIYSDGSRTFYGDSVK	GRKAGTFDS	3.46 / 4.10 / 5.82	4.46	6 of 9 (4.28)
GFTLNSYGPS	VIYSDWERTFYGDSVK	GRAAGTFDS	ND / ND / 3.48	3.48	0 of 9
GFTMNSYGIS	VIYSDGRRTFYGDSVK	HRAAGVFDS	ND / ND / ND	ND	0 of 9
GFVLNSYGIS	VIYSDGRRTFYGDEVK	GRAAGTFDS	2.39 / 2.27 / 2.61	2.42	5 of 9 (4.80)
WFTLNSYGIS	CIYSDGRRTFYGDSVK	GRAAGTFSS	ND / ND / ND	ND	0 of 9
WFTLNMYGIS	VIYSDGRRTFYGDSDK	GRAAGTFDS	4.97 / 5.06 / ND	5.02	4 of 9 (4.92)
GFTLNSWGIS	VIASDGRRTFYGCSVK	GRAAGTFDS	3.77 / ND / ND	3.77	2 of 9 (3.43)
GFTLNSYGIS	VIYDDGRRTFYGDSVK	GRFADTFDS	ND / ND / ND	ND	0 of 9
GFTLNSYGIS	VIASWGRRTFYGDSVK	TRAAGTFDS	ND / ND / ND	ND	3 of 9 (4.16)
CFTLNSYGIS	VIYSDGRRYFYGDSGK	GRAAGTFDS	ND / ND / ND	ND	0 of 9
GFTLNSYGIS	VIYSDGRRMFYGCNVK	GRAAGTFDS	ND / ND / 3.73	3.73	0 of 9
GFTLNSYQIS	RIYSDGRRTFEGDSVK	GRAAGTFDS	ND / 3.49 / ND	3.49	4 of 9 (4.27)
GFTLNSKGIS	VIYSDGRRTFYGDSVK	ERAKGTFDS	ND / ND / ND	ND	1 of 9 (4.11)
GFTYNSYGIS	AIYSDGRRTFYGDSVK	GRAAGTFDS	ND / 4.04 / 6.09	5.06	2 of 9 (4.50)
GFSLNSYGIS	VIYSDGRRFFYGDSVK	GRAAMTFDS	ND / ND / ND	ND	2 of 9 (3.67)
GFTLNSYGIS	VIYSDGRRTFDGDEVK	GRAAGTFDS	ND / ND / 4.19	4.19	1 of 9 (4.30)
GFTLNSYGSS	VIYSDDRRTFYGDQVK	GRAAGTFDS	4.55 / ND / ND	4.55	1 of 9 (3.25)
GFTLNSYGIS	VIASKGRRNFYGDSVK	GRAAGTFDS	ND / ND / ND	ND	1 of 9 (2.70)
GFTLNSYGVS	VIYSDGRRTFYNDSVK	GRGAGTFDS	3.01 / ND / ND	3.01	4 of 9 (4.47)
GFTLNSYGIS	VIYSDFRRTFYGDSVK	GRAAGTFHS	3.97 / ND / ND	3.97	6 of 9 (4.06)
GFTLNSYGIS	VIYSWGRRTFYIDSVS	GRAAGTFDS	ND / 4.55 / ND	4.55	2 of 9 (4.23)
GFTLNSYGIS	VIYSDNRRTFYGDKGK	GRAAGTFDS	ND / ND / ND	ND	1 of 9 (3.64)
GFTLNSYGIS	VIYSDGRNTFYGDSVQ	GRAACTFDS	ND / ND / 4.69	4.69	1 of 9 (5.10)
PFAWNSYGIS	VIYSDGRRTFYGDSVK	GRAAGTFDS	3.95 / ND / ND	3.95	2 of 9 (4.16)
GFTLNSYQIS	VIYSDGRRHFYGDSPK	GRAAGTFDS	ND / ND / ND	ND	0 of 9
GFTLNSGGIS	VIYSDGRRTFYGDGNK	GRAAGTFDS	ND / ND / ND	ND	0 of 9

From the list, the first 5 with no signal in any replicate:

{"CDR-H1": "HFTWNSYGIR", "CDR-H2": "VIYSDGRRTFYGDSVK", "CDR-H3": "GRAAGTFDS", "log10 Kd, replicates": "ND / ND / ND", "mean, log10 nM": "ND", "empty controls": "2 of 9 (4.72)"}
{"CDR-H1": "GFTLNSYGIS", "CDR-H2": "VPYSDGRRTWYGDSSK", "CDR-H3": "GRAAGTFDS", "log10 Kd, replicates": "ND / ND / ND", "mean, log10 nM": "ND", "empty controls": "1 of 9 (4.16)"}
{"CDR-H1": "GFTLNSYGIS", "CDR-H2": "VIYSDVRRTFYGDSVK", "CDR-H3": "ERAAGTFDS", "log10 Kd, replicates": "ND / ND / ND", "mean, log10 nM": "ND", "empty controls": "0 of 9"}
{"CDR-H1": "GLYLNSYGIS", "CDR-H2": "VIYSSGRRTFYGDSVK", "CDR-H3": "GRAAGTFDS", "log10 Kd, replicates": "ND / ND / ND", "mean, log10 nM": "ND", "empty controls": "0 of 9"}
{"CDR-H1": "GFTLNSYDIS", "CDR-H2": "VIYSDGRRTFYFDSVK", "CDR-H3": "GRAAGTFDT", "log10 Kd, replicates": "ND / ND / ND", "mean, log10 nM": "ND", "empty controls": "0 of 9"}

Data: MIT Lincoln Laboratory AlphaSeq set, Engelhart et al. 2022, doi:10.1038/s41597-022-01779-4, as distributed in FLAb.